Measured values: patent publication US20140072613A1, “Compositions and Methods for Treating Cutaneous Scarring” (priority 2012, published 2014)

Chains of the proteins cited; added tags and fusions are not shown. Lines headed by an entry give the natural chain unless they say otherwise; changes in a name come on top.
UniProt Q9Y243: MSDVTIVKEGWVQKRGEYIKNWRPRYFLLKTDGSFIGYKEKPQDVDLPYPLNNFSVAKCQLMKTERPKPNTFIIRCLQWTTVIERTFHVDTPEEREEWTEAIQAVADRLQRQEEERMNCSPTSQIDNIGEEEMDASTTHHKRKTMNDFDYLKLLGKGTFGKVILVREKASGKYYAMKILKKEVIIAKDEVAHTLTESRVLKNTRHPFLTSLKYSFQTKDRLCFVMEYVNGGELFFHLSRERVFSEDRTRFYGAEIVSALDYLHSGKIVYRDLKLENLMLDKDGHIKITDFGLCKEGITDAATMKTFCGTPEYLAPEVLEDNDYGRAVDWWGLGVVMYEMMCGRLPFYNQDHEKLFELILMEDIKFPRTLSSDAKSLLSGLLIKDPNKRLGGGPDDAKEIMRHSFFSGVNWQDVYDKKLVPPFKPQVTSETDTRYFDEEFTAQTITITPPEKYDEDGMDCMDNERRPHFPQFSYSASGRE
UniProt Q00526: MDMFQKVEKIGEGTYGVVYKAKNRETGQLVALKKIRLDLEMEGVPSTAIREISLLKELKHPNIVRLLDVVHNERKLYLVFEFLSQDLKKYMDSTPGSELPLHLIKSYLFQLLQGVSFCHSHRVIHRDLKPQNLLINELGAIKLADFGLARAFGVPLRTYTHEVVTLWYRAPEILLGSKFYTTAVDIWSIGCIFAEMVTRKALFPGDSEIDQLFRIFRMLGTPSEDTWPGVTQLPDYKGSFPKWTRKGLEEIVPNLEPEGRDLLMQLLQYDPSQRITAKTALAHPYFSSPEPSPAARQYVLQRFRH
UniProt Q8N4C8: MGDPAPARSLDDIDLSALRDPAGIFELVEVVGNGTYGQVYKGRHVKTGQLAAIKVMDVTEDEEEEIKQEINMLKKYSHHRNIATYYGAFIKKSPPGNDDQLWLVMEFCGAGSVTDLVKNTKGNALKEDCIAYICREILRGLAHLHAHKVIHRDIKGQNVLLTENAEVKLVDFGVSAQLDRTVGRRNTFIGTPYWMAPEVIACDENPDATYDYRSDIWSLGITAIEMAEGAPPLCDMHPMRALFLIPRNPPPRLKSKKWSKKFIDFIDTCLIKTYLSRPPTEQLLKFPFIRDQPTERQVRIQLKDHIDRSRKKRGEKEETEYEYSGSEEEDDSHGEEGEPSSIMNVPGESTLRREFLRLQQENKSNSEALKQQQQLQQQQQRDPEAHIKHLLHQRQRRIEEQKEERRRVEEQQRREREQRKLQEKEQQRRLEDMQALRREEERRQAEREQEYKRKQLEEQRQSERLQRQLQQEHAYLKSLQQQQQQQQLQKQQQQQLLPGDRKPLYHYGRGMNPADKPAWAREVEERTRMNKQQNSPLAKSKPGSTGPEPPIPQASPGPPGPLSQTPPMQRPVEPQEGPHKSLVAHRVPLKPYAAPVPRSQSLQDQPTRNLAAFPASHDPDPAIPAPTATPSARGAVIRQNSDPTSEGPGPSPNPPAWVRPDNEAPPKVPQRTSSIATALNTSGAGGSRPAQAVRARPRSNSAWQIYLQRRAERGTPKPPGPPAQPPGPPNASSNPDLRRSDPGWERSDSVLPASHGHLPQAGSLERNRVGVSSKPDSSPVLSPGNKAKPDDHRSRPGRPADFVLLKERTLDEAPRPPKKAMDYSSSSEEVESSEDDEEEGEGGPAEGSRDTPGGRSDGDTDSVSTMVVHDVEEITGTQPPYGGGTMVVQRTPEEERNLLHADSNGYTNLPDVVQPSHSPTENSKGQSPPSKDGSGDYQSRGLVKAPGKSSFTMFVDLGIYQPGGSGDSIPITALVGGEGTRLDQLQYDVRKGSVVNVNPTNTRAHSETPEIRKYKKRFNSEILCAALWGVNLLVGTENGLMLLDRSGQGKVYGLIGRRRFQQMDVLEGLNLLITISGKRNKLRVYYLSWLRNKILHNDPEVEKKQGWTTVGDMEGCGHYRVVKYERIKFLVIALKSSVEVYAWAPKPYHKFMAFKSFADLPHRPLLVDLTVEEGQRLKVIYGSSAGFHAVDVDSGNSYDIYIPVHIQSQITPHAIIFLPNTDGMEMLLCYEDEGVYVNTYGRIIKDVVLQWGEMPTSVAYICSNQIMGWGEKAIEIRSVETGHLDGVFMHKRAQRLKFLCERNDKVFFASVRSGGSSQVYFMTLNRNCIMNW
UniProt Q9H2X6: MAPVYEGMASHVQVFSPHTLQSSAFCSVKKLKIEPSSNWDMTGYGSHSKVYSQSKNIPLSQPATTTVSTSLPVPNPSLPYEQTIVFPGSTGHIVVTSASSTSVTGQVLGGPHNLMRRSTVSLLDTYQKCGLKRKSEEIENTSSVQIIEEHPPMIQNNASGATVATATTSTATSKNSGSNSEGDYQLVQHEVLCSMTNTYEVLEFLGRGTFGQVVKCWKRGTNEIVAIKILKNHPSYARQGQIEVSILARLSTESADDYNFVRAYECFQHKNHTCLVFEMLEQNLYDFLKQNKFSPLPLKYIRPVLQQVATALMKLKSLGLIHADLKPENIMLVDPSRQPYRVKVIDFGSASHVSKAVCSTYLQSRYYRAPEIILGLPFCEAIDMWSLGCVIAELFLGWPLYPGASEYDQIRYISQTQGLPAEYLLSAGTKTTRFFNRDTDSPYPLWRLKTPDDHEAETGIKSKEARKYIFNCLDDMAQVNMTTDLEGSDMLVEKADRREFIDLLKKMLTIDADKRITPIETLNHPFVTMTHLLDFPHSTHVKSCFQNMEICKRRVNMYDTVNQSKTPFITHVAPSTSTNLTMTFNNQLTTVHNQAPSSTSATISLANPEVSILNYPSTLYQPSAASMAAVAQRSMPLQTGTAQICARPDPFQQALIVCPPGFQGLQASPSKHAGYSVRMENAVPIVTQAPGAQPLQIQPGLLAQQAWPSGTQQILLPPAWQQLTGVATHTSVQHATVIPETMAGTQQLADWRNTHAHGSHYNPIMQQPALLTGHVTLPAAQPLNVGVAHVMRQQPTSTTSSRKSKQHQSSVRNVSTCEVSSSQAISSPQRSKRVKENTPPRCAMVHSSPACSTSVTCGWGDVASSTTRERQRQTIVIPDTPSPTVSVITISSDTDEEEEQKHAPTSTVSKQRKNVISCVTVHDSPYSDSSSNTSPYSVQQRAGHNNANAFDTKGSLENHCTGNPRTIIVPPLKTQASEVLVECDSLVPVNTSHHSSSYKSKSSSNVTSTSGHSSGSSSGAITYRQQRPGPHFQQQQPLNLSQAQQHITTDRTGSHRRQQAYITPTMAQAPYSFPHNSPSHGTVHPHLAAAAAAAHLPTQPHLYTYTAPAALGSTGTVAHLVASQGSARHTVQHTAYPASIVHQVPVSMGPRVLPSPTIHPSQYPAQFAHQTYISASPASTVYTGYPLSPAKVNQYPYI
UniProt Q06187, whole entry R28H: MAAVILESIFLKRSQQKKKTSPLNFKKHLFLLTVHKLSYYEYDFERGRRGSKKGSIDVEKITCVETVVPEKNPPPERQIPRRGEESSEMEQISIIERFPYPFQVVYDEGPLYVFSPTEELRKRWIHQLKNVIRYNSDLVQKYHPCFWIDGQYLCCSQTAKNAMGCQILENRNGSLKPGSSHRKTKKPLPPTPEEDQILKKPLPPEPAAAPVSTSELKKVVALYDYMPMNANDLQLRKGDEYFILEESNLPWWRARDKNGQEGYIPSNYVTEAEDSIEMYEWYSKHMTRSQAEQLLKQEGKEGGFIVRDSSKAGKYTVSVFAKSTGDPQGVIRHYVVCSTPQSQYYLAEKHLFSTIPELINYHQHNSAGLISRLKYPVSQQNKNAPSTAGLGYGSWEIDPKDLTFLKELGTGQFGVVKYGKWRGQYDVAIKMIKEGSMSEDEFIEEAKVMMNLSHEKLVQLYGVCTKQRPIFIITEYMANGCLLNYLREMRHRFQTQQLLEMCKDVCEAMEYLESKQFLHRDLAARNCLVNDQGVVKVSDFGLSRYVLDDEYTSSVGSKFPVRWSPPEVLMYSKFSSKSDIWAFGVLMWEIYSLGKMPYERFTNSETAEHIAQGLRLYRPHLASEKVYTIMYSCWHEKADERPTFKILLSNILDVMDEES
UniProt O14965: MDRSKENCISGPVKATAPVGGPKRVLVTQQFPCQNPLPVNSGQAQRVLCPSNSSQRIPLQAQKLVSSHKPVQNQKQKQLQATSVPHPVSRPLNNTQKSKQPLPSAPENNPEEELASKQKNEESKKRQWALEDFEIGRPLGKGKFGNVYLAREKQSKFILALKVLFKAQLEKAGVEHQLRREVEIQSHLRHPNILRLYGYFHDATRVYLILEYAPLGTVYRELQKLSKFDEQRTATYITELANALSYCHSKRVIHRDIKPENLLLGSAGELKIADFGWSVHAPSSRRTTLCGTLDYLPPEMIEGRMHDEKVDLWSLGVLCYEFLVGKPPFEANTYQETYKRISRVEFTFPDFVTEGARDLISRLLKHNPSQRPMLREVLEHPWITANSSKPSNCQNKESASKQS
UniProt Q9NQU5: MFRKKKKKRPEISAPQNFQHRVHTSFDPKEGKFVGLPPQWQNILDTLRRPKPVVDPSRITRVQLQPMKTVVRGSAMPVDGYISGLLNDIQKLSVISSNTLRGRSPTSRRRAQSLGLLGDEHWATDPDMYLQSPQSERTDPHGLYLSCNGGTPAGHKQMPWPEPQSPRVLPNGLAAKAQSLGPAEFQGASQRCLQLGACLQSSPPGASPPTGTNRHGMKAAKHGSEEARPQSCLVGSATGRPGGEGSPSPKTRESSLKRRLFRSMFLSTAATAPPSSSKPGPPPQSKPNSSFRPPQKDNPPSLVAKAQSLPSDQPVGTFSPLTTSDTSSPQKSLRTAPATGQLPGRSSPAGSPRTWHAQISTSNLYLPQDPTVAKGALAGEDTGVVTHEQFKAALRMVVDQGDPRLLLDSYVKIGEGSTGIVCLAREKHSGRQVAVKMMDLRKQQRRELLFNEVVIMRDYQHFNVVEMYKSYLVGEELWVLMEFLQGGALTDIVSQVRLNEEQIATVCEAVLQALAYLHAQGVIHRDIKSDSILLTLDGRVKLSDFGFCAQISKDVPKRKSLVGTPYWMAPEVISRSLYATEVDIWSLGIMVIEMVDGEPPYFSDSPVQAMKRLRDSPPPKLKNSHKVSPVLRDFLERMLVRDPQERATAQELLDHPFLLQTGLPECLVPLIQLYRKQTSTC
UniProt Q15349, whole entry: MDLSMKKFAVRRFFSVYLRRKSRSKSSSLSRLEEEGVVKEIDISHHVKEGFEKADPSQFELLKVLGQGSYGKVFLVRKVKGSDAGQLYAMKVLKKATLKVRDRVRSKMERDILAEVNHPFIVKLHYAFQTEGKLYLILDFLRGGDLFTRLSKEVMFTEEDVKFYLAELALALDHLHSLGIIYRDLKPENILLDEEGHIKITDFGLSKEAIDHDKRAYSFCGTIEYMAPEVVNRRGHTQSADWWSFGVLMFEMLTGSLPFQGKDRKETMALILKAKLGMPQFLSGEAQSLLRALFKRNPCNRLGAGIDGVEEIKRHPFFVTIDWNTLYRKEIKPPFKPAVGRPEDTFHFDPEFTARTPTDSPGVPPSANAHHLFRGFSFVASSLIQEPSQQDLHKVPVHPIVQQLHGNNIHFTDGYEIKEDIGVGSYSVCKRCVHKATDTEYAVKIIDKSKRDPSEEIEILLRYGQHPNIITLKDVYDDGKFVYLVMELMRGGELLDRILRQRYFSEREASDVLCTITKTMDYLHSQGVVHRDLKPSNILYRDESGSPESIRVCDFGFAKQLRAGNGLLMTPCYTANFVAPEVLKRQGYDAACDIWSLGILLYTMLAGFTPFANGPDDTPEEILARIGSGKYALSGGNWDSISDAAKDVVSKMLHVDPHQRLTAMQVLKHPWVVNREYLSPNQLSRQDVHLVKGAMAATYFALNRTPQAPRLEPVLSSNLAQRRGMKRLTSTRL
UniProt P49840: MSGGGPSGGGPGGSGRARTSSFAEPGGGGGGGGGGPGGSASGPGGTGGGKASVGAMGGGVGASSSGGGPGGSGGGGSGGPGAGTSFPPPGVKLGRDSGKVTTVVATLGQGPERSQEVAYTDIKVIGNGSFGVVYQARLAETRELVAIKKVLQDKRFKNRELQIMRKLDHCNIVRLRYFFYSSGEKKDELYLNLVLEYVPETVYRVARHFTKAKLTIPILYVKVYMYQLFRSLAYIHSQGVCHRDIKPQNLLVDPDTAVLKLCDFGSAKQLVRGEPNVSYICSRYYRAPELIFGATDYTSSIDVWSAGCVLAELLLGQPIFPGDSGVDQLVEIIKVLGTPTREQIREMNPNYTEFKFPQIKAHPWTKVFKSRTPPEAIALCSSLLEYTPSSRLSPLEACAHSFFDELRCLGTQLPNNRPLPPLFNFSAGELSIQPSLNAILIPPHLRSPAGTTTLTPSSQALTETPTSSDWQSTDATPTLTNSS

Legend:
Assay type in all cases: biochemical
266 human kinases [1] = biological target: 266 human kinases (Homo sapiens, UniProt Q9Y243); details: PKBγ(h); 100 μM
From the text: (§1) Specifically, in these assays, a positively charged substrate is phosphorylated with a radiolabeled phosphate group from an ATP if the kinase is not inhibited by an inhibitor peptide. The positively charged substrate then is attracted to a negatively charged filter membrane, quantified with a scintillation counter, and compared to a 100% activity control.

266 human kinases [2] = biological target: 266 human kinases (Homo sapiens, UniProt P10721, V654A); details: cKit(V654A)(h); 100 μM
From the text: as §1

266 human kinases [3] = biological target: T1, 266 human kinases (Homo sapiens, UniProt P29320); details: EphA3(h); 100 μM
T1 sequence (P29320 21-983): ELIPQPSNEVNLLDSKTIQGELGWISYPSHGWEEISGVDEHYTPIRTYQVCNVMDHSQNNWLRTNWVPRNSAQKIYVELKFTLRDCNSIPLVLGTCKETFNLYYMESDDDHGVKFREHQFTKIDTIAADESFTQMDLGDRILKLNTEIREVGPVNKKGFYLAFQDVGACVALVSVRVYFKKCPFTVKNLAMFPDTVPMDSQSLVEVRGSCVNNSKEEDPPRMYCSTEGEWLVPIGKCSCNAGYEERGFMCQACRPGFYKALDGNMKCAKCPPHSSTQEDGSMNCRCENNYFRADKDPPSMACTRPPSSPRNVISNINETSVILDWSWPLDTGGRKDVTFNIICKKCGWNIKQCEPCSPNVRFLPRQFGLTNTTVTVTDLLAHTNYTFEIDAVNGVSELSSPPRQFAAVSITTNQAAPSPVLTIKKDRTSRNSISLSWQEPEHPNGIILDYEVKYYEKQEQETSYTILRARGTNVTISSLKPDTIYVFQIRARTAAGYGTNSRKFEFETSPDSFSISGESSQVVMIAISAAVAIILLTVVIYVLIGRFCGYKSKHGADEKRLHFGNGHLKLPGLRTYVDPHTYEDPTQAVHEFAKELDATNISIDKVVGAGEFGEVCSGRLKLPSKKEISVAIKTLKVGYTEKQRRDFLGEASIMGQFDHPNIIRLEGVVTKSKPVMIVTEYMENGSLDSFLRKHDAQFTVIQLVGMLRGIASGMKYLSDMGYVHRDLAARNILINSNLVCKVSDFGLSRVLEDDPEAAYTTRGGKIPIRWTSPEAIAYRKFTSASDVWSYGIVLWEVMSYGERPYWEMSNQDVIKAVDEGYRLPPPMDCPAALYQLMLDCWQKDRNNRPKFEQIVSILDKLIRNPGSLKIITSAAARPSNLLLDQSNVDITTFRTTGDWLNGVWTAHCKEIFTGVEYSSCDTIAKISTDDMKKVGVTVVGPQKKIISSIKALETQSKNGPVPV
From the text: as §1

266 human kinases [4] = biological target: 266 human kinases (Homo sapiens, UniProt Q00526); details: CDK3/cyclinE(h); 100 μM
From the text: as §1

266 human kinases [5] = biological target: 266 human kinases (Homo sapiens, UniProt Q8N4C8); details: MINK(h); 100 μM
From the text: as §1

266 human kinases [6] = biological target: 266 human kinases (Homo sapiens, UniProt P06493); details: CDK1/cyclinB(h); 100 μM
From the text: as §1

266 human kinases [7] = biological target: 266 human kinases (Homo sapiens, UniProt Q9H2X6); details: HIPK2(h); 100 μM
From the text: as §1

266 human kinases [8] = biological target: 266 human kinases (Homo sapiens, UniProt P04049); details: c-RAF(h); 100 μM
From the text: as §1

266 human kinases [9] = biological target: 266 human kinases (Homo sapiens, UniProt Q06187, R28H); details: BTK(R28H)(h); 100 μM
From the text: as §1

266 human kinases [10] = biological target: T2, 266 human kinases (Homo sapiens, UniProt Q13188); details: MST2(h); 100 μM
T2 sequence (Q13188 1-491): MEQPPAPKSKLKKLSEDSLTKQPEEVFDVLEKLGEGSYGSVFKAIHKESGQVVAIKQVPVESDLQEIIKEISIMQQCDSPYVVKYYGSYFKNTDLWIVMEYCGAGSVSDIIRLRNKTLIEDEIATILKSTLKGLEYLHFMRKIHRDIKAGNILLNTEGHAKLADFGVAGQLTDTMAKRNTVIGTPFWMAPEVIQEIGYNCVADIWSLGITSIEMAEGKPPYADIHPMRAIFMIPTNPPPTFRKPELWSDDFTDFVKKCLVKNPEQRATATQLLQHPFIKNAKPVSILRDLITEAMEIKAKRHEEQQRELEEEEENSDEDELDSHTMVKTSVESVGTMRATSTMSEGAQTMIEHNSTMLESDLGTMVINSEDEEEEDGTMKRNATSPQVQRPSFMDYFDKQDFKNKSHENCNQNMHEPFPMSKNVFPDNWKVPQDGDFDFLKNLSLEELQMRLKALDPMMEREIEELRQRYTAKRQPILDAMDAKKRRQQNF
From the text: as §1

266 human kinases [11] = biological target: 266 human kinases (Homo sapiens, UniProt O14965); details: Aurora-A(h); 100 μM
From the text: as §1

266 human kinases [12] = biological target: 266 human kinases (Homo sapiens, UniProt Q9NQU5); details: PAK6(h); 100 μM
From the text: as §1

266 human kinases [13] = biological target: 266 human kinases (Homo sapiens, UniProt Q15349); details: Rsk3(h); 100 μM
From the text: as §1

266 human kinases [14] = details: JNK1α1(h); 100 μM
From the text: as §1

266 human kinases [15] = biological target: 266 human kinases (Homo sapiens, UniProt P00519); details: Abl(h); 100 μM
From the text: as §1

266 human kinases [16] = biological target: 266 human kinases (Homo sapiens, UniProt P53667); details: LIMK1(h); 100 μM
From the text: as §1

266 human kinases [17] = biological target: 266 human kinases (Homo sapiens, UniProt Q02750); details: MEK1(h); 100 μM
From the text: as §1

266 human kinases [18] = biological target: 266 human kinases (Homo sapiens, UniProt P49840); details: GSK3α(h); 100 μM
From the text: as §1

With “YARAAARQARAKALNRQLGVA (mammal) [MMI-0200]” the “% activity” value (266 human kinases [1]) was 103%, the “% activity” value (266 human kinases [2]) was 113% and the “% activity” value (266 human kinases [3]) was 117%. For the same sequence, the “% activity” value (266 human kinases [4]) was 104%, the “% activity” value (266 human kinases [5]) was 103% and the “% activity” value (266 human kinases [6]) was 115%. The “% activity” value (266 human kinases [7]) was 102%, the “% activity” value (266 human kinases [8]) was 115% and the “% activity” value (266 human kinases [9]) was 104%. For the same sequence, the “% activity” value (266 human kinases [10]) was 104%, the “% activity” value (266 human kinases [11]) was 107% and the “% activity” value (266 human kinases [12]) was 105%. The “% activity” value (266 human kinases [13]) was 109%, the “% activity” value (266 human kinases [14]) was 106% and the “% activity” value (266 human kinases [15]) was 107%. For the same sequence, the “% activity” value (266 human kinases [16]) was 109%, the “% activity” value (266 human kinases [17]) was 116% and the “% activity” value (266 human kinases [18]) was 119%.
